Reference: patent US20240252686A1 (SKYLINE THERAPEUTICS, published 2024)

By UniProt entry, the sequences of proteins in these tests, tags left out. Chains listed by the source or under a name are the forms on record and can include a tag or linker.
UniProt P15692, other isoform, or with tags, fused parts or gaps limits assumed: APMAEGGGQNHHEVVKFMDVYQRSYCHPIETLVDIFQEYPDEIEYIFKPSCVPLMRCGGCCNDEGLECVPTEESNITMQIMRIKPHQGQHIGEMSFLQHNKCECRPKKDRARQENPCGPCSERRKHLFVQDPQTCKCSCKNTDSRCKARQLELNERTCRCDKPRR

Target: VEGFA-165 (R&D systems 293-VE/CF) (human) (UniProt P15692)
Assay: competitive ELISA as in Example 7: inhibition of VEGFR2/KDR Fc binding to coated VEGFA-165

IC50: 62.1 nM
Substance: Lucentis (NOVARTIS, SAWE7) (Fab)
